Chains of the proteins cited; added tags and fusions are not shown.
UniProt Q08211, whole entry: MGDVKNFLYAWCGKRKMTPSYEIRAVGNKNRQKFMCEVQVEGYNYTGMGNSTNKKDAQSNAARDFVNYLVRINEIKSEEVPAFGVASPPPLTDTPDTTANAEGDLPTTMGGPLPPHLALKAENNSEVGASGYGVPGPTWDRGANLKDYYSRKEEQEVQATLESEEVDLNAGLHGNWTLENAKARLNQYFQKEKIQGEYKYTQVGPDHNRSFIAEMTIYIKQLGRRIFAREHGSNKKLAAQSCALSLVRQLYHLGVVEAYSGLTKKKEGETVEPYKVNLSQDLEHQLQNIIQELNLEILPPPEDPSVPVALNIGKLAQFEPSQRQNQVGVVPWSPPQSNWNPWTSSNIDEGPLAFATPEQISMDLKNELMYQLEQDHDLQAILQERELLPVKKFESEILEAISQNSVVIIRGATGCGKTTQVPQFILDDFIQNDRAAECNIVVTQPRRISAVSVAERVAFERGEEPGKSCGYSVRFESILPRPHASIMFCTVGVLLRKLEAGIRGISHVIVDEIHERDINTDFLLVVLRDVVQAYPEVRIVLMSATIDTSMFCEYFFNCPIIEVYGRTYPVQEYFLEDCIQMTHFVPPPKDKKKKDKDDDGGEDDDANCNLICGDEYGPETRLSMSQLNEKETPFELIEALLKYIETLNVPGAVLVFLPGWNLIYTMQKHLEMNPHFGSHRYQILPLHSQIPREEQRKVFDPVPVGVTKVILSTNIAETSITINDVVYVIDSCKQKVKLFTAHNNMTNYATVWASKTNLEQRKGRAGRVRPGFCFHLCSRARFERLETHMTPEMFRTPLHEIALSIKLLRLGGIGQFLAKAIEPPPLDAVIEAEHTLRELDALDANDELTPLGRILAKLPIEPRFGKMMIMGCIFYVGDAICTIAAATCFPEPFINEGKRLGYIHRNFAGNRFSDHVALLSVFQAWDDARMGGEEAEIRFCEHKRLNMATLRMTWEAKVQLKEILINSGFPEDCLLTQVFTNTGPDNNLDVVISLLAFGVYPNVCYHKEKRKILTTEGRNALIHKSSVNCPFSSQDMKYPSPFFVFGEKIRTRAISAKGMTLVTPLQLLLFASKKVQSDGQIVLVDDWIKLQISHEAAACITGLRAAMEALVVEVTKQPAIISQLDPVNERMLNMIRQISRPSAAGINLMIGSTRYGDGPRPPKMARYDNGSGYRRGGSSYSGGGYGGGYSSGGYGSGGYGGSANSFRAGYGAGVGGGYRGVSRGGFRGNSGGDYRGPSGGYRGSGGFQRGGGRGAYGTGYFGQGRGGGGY

In patent US20240316047A1, “INHIBITORS OF RNA HELICASE DHX9 AND USES THEREOF” (ACCENT THERAPEUTICS, INC., priority 2022, published 2024):

Key:
[1] = test system: circBRIP1 in HCT116 cells; assay: DHX9 circBRIP1 cellular target engagement SYBR Green assay; format: cell-based
[2] = molecular target: Human recombinant DHX9 protein (Homo sapiens (Human), UniProt Q08211); assay: DHX9 ATPase assay (ADP-Glo); format: biochemical
[3] = read-out: DHX9 Biochemical Inflection Point
[4] = DHX9 Biochemical Inflection Point

Compound | pEC50 [1] | pIC50 [2, 3] | DHX9 Biochemical Max Inhibition [2] | pIC50 [2, 4]
N-(3-chloro-5-(methylsulfonamido)phenyl)-1-((1s,4s)-4-hydroxycyclohexyl)-1H-pyrazole-4-carboxamide [Example 151] | < 5.00 | 6.75 |  | 
CS(=O)(=O)Nc1cc(Cl)cc(NC(=O)c2cc(C(=O)N3CCNCC3)n(-c3ccccn3)c2)c1 [Example 165, N-(3-chloro-5-(methylsulfonamido)phenyl)-5-(piperazine-1-carbonyl)-1-(pyridin-2-yl)-1H-pyrrole-3-carboxamide] |  |  | 57.4% | 7.27
CS(=O)(=O)Nc1cc(Br)cc(NC(=O)c2cn(-c3ccccc3)c(=O)[nH]2)c1 [Example 101, N-(3-bromo-5-(methylsulfonamido)phenyl)-2-oxo-1-phenyl-2,3-dihydro-1H-imidazole-4-carboxamide] |  | 4.89 | 53.6% | 
CS(=O)(=O)Nc1cc(Cl)cc(NC(=O)c2cc(CO)n(-c3ccccn3)c2)c1 [Example 169, N-(3-chloro-5-(methylsulfonamido)phenyl)-5-(hydroxymethyl)-1-(pyridin-2-yl)-1H-pyrrole-3-carboxamide] |  | 8.06 | 67.9% | 
Cc1cc(C(=O)Nc2cc(Cl)cc(NS(C)(=O)=O)c2)cn1-c1ncccc1OCc1cncc(F)c1 [Example 175, N-(3-chloro-5-(methylsulfonamido)phenyl)-1-(3-((5-fluoropyridin-3-yl)methoxy)pyridin-2-yl)-5-methyl-1H-pyrrole-3-carboxamide] |  | 8.44 | 78.8% | 
CS(=O)(=O)Nc1cc(Br)cc(NC(=O)c2cccs2)c1 [Example 157, N-(3-bromo-5-(methylsulfonamido)phenyl)thiophene-2-carboxamide] |  |  | 61.7% | 7.28
CS(=O)(=O)Nc1cc(Cl)cc(NC(=O)c2cnn([C@H]3CC[C@H](O)CC3)c2)c1 (single isomer, unassigned) [Example 154] |  | 6.75 | 58.9% | 
CS(=O)(=O)Nc1cc(Cl)cc(NC(=O)c2cc(-c3ccccn3)ns2)c1 [Example 137, N-(3-chloro-5-(methylsulfonamido)phenyl)-3-(pyridin-2-yl)isothiazole-5-carboxamide] |  | 7.13 | 62.9% | 
Cc1cc(C(=O)Nc2cc(Cl)cc(NS(C)(=O)=O)c2)cn1-c1ccccn1 [Example 170, N-(3-chloro-5-(methylsulfonamido)phenyl)-5-methyl-1-(pyridin-2-yl)-1H-pyrrole-3-carboxamide] |  | 8.24 | 75.4% | 
CS(=O)(=O)Nc1cc(Cl)cc(NC(=O)c2cccc(-n3ccc(C#N)n3)c2)c1 [Example 100, N-(3-chloro-5-(methylsulfonamido)phenyl)-3-(3-cyano-1H-pyrazol-1-yl)benzamide] |  | 4.86 | 49.9% | 
CS(=O)(=O)Nc1cc(Cl)cc(NC(=O)c2cc(Nc3ccccc3)n[nH]2)c1 [Example 164, N-(3-chloro-5-(methylsulfonamido)phenyl)-3-(phenylamino)-1H-pyrazole-5-carboxamide] |  | 5.03 | 50.5% | 

pEC50, pIC50: −log10 of the molar value. Like-named read-outs stand apart in the source and are kept apart here.
